Measured values from PMC11370232, “Repurposing of a library for high-content screening of inhibitors against Echinococcus granulosus” (Parasites & Vectors, 2024).

System: E. granulosus PSCs
Assay: microbe, parasite or virus in culture
Settings: Echinococcus granulosus; for killing at 0.5 µM / killing at 2 µM / killing at 10 µM / killing at 50 µM: 72 h
[1] = read-out: Anti-echinicoccus activity, Dose confirmaiton 0.5uM
[2] = read-out: Anti-echinicoccus activity, Dose confirmaiton 2uM
[3] = read-out: Anti-echinicoccus activity, Dose confirmaiton 10uM
[4] = read-out: Anti-echinicoccus activity, Dose confirmaiton 50uM
[5] = read-out: Anti-echinicoccus activity, Initiate hits 50uM
[6] = read-out: Anti-echinococcus activity % of death, 0.5uM
[7] = read-out: Anti-echinococcus activity % of death, 2uM
[8] = read-out: Anti-echinococcus activity % of death, 10uM
[9] = read-out: Anti-echinococcus activity % of death, 50uM
[10] = read-out: Anti-echinococcus activity % of death
[11] = read-out: Anti-echinicoccus activity, Dose confirmaiton 0.5uM, second-stage dose-response, 0.5 μM, PSCs
[12] = read-out: Anti-echinicoccus activity, Dose confirmaiton 2uM, second-stage dose-response, 2 μM, PSCs
[13] = read-out: Anti-echinicoccus activity, Dose confirmaiton 10uM, second-stage dose-response, 10 μM, PSCs
[14] = read-out: Anti-echinicoccus activity, Dose confirmaiton 50uM, second-stage dose-response, 50 μM, PSCs
[15] = read-out: Anti-echinicoccus activity, Initiate hits 50uM, primary screen, 50 μM, PSCs, 3-day incubation, PI staining (death rate of PSCs)
[16] = read-out: Anti-echinococcus activity % of death, 0.5uM, E. granulosus PSCs, compound at 0.5uM
[17] = read-out: Anti-echinococcus activity % of death, 2uM, E. granulosus PSCs, compound at 2uM
[18] = read-out: Anti-echinococcus activity % of death, 10uM, E. granulosus PSCs, compound at 10uM
[19] = read-out: Anti-echinococcus activity % of death, 50uM, E. granulosus PSCs, compound at 50uM

## O=C(Nc1cc(C(F)(F)F)cc(C(F)(F)F)c1)c1cc(Cl)ccc1O [IMD 0354, reference compound]
[1]
  killing at 0.5 µM: 0%
[2]
  killing at 2 µM: 100%
[3]
  killing at 10 µM: 100%
[4]
  killing at 50 µM: 100%
[5]
  killing at 50 µM: 97%
[6]
  mortality at 0.5 µM: 0%
[7]
  mortality at 2 µM: 100%
[8]
  mortality at 10 µM: 100%
[9]
  mortality at 50 µM: 100%

## O=c1[nH]c(CCl)nc2sc3c(c12)CCCC3 [LM 1554]
[10]
  mortality at 0.5 µM: 0%
  mortality at 2 µM: 0%
  mortality at 10 µM: 0%
  mortality at 50 µM: 100%

## CCOC(=O)C(C)(C)CCCCOc1ccc(OCCCCCn2ccnc2)cc1 [YM-534]
[6]
  mortality at 0.5 µM: 0%
[7]
  mortality at 2 µM: 0%
[8]
  mortality at 10 µM: 0%
[9]
  mortality at 50 µM: 100%

## COc1ccc(-c2ccc3ncc4c(c3c2)n(-c2ccc(N3CCNCC3)c(C(F)(F)F)c2)c(=O)n4C)cn1 [BGT226 (NVP-BGT226), BGT226, reference compound]
[11]
  killing at 0.5 µM: 0%
[12]
  killing at 2 µM: 0%
[13]
  killing at 10 µM: 100%
[14]
  killing at 50 µM: 100%
[15]
  killing at 50 µM: 88%

## CC[C@H](C)[C@H]1O[C@]2(CC[C@@H]1C)C[C@@H]1C[C@@H](C/C=C(\C)[C@@H](O[C@H]3C[C@H](OC)[C@@H](O[C@H]4C[C@H](OC)[C@@H](O)[C@H](C)O4)[C@H](C)O3)[C@@H](C)/C=C/C=C3\CO[C@@H]4[C@H](O)C(C)=C[C@@H](C(=O)O1)[C@]34O)O2 [ivermectin 1%]
[6]
  mortality at 0.5 µM: 0%
[7]
  mortality at 2 µM: 0%
[8]
  mortality at 10 µM: 0%
[9]
  mortality at 50 µM: 100%

## CC1=C(O)C(=O)C=C2C1=CC=C1[C@@]2(C)CC[C@@]2(C)[C@@H]3C[C@](C)(C(=O)O)CC[C@]3(C)CC[C@]12C [Celastrol, reference compound]
[1]
  killing at 0.5 µM: 0%
[2]
  killing at 2 µM: 0%
[3]
  killing at 10 µM: 100%
[4]
  killing at 50 µM: 100%
[5]
  killing at 50 µM: 94%

## C=C1C(=O)O[C@@H]2[C@H]3C(C)=CC[C@@]34O[C@@]4(C)CC[C@@H]12 [Arglabin]
[6]
  mortality at 0.5 µM: 0%
[7]
  mortality at 2 µM: 0%
[8]
  mortality at 10 µM: 0%
[9]
  mortality at 50 µM: 100%

## Cc1ccc(C(=O)N(CCCN)[C@@H](c2oc3cc(Cl)ccc3c(=O)c2Cc2ccccc2)C(C)C)cc1 [SB-743921]
[16]
  mortality at 0.5 µM: 0%
[17]
  mortality at 2 µM: 0%
[18]
  mortality at 10 µM: 0%
[19]
  mortality at 50 µM: 100%

## Cc1ccc(C(=O)Nc2ccc(CN3CCN(C)CC3)c(C(F)(F)F)c2)cc1C#Cc1cnc2cccnn12 [Ponatinib]
[6]
  mortality at 0.5 µM: 0%
[7]
  mortality at 2 µM: 0%
[8]
  mortality at 10 µM: 20%
[9]
  mortality at 50 µM: 100%

## Cc1cccc(C)c1OCCN1CCC(C(O)(c2ccc(F)cc2)c2ccc(F)cc2)CC1 [LAS 30538]
[10]
  mortality at 0.5 µM: 0%
  mortality at 2 µM: 0%
  mortality at 10 µM: 0%
  mortality at 50 µM: 100%

## COC1=CC(c2cc3ccccc3[nH]2)=N/C1=C\c1[nH]c(C)cc1C [Obatoclax Mesylate (GX15-070), Obatoclax Mesylate, reference compound]
[11]
  killing at 0.5 µM: 100%
[12]
  killing at 2 µM: 100%
[13]
  killing at 10 µM: 100%
[14]
  killing at 50 µM: 100%
[15]
  killing at 50 µM: 100%

## Clc1ccc(C(c2ccc(Cl)cc2)n2cc[n+](CC(OCc3ccc(Cl)cc3Cl)c3ccc(Cl)cc3Cl)c2)cc1 (centres unmarked) [Calmidazolium chloride, reference compound]
[11]
  killing at 0.5 µM: 0%
[12]
  killing at 2 µM: 0%
[13]
  killing at 10 µM: 50%
[14]
  killing at 50 µM: 100%
[15]
  killing at 50 µM: 79%

## O=C(Nc1cc(C(F)(F)F)ccc1Oc1ccc(Cl)c2ccccc12)c1cc(Cl)ccc1O [MPC-2130]
[6]
  mortality at 0.5 µM: 0%
[7]
  mortality at 2 µM: 40%
[8]
  mortality at 10 µM: 100%
[9]
  mortality at 50 µM: 100%

## [O-][n+]1ccccc1S [omadine]
[16]
  mortality at 0.5 µM: 0%
[17]
  mortality at 2 µM: 0%
[18]
  mortality at 10 µM: 0%

## O=c1c(-c2ccccc2)c1-c1ccccc1 [Diphenylcyclopropenone]
[10]
  mortality at 0.5 µM: 0%
  mortality at 2 µM: 0%
  mortality at 10 µM: 0%
  mortality at 50 µM: 100%

## COc1ccc(C(=O)CN(C)C(=O)/C=C/c2cccnc2)cc1OC [TJN-598]
[6]
  mortality at 0.5 µM: 0%
[7]
  mortality at 2 µM: 60%
[8]
  mortality at 10 µM: 100%
[9]
  mortality at 50 µM: 100%

## CCCCc1oc2ccc(NS(C)(=O)=O)cc2c1C(=O)c1ccc(OCCCN(CCCC)CCCC)cc1 [dronedarone hydrochloride]
[6]
  mortality at 0.5 µM: 0%
[7]
  mortality at 2 µM: 0%
[8]
  mortality at 10 µM: 100%
[9]
  mortality at 50 µM: 100%

## N#Cc1ccc(Oc2ccc(NC(=O)Nc3ccc(Cl)c(C(F)(F)F)c3)cc2)cc1 [SC-1]
[6]
  mortality at 0.5 µM: 0%
[7]
  mortality at 2 µM: 0%
[8]
  mortality at 10 µM: 100%
[9]
  mortality at 50 µM: 100%

## CCN(CC)CCCNc1nccc2c(C)c3[nH]c4ccc(OC)cc4c3c(C)c12 [[…]]
[6]
  mortality at 0.5 µM: 0%
[7]
  mortality at 2 µM: 0%
[8]
  mortality at 10 µM: 0%
[9]
  mortality at 50 µM: 100%

## COc1cccc2c1C(=O)c1c(O)c3c(c(O)c1C2=O)C[C@@](O)(C(C)=O)C[C@@H]3O[C@H]1C[C@H](N)[C@H](O)[C@H](C)O1 [Daunorubicin HCl, reference compound]
[1]
  killing at 0.5 µM: 100%
[2]
  killing at 2 µM: 100%
[3]
  killing at 10 µM: 100%
[4]
  killing at 50 µM: 100%
[5]
  killing at 50 µM: 100%

## CN[C@@H]1C[C@H]2O[C@@](C)([C@@H]1OC)n1c3ccccc3c3c4c(c5c6ccccc6n2c5c31)C(=O)NC4 [Staurosporine]
[6]
  mortality at 0.5 µM: 100%
[7]
  mortality at 2 µM: 100%
[8]
  mortality at 10 µM: 100%
[9]
  mortality at 50 µM: 100%

## CC(=O)Oc1cc(C)c(OC(C)=O)c2ccccc12 [ACETOMENAPHTHONE]
[6]
  mortality at 0.5 µM: 0%
[7]
  mortality at 2 µM: 0%
[8]
  mortality at 10 µM: 60%
[9]
  mortality at 50 µM: 100%

## CN(C)CCCNc1c(C#N)[n+]([O-])c2cc(Cl)ccc2[n+]1[O-] [Q-85]
[6]
  mortality at 0.5 µM: 0%
[7]
  mortality at 2 µM: 0%
[8]
  mortality at 10 µM: 0%
[9]
  mortality at 50 µM: 100%

## Nc1c2ccccc2nc2ccccc12 [ACRISORCIN]
[16]
  mortality at 0.5 µM: 0%
[17]
  mortality at 2 µM: 0%
[18]
  mortality at 10 µM: 0%
[19]
  mortality at 50 µM: 100%

## CN1CCN(c2ccccc2/C=C2\SCCN(c3ccc(Cl)c(Cl)c3)C2=O)CC1 [ELZASONAN]
[10]
  mortality at 0.5 µM: 0%
  mortality at 2 µM: 0%
  mortality at 10 µM: 0%
  mortality at 50 µM: 100%

## O=C(NC1CCN(CCCCC2(C(=O)NCC(F)(F)F)c3ccccc3-c3ccccc32)CC1)c1ccccc1-c1ccc(C(F)(F)F)cc1 [Lomitapide, reference compound]
[11]
  killing at 0.5 µM: 0%
[12]
  killing at 2 µM: 0%
[13]
  killing at 10 µM: 0%
[14]
  killing at 50 µM: 100%
[15]
  killing at 50 µM: 100%
[10]
  mortality at 0.5 µM: 0%
  mortality at 2 µM: 0%
  mortality at 10 µM: 0%
  mortality at 50 µM: 100%

## CN[C@H]1CC[C@@H](c2ccc(Cl)c(Cl)c2)c2ccccc21 [sertraline hydrochloride]
[6]
  mortality at 0.5 µM: 0%
[7]
  mortality at 2 µM: 0%
[8]
  mortality at 10 µM: 0%

## COCCN1CCC(N(Cc2ccc(-c3ccc(C(F)(F)F)cc3)cc2)C(=O)Cn2c(CCc3cccc(F)c3F)cc(=O)c3cccnc32)CC1 [PH-CBR-2016-001-HVAC-05709-0]
[6]
  mortality at 0.5 µM: 0%
[7]
  mortality at 2 µM: 0%
[8]
  mortality at 10 µM: 0%
[9]
  mortality at 50 µM: 100%

Where a name gives a salt, the structure may show the parent alone. Read-outs that look alike come from different tables or passages of the source.
